Earlier results as cited in paper PMC4844587, “PET imaging of cyclooxygenase-2 (COX-2) in a pre-clinical colorectal cancer model” (EJNMMI Research, 2016).

Tested on: COX-1
Design: method as in PMID 24145766
Conditions: cited from earlier work

Structure (SMILES) | COX-1 inhibition (concentration range tested) | IC50 [µM]
CS(=O)(=O)c1ccc(-c2cc(C(F)(F)F)nc(NCc3ccc(F)cc3)n2)cc1 [Pyricoxib, N-(4-fluorobenzyl)-4-[4-(methylsulfonyl)-phenyl]-6-(trifluoro-methyl)pyrimidin-2-amine] | did not show COX-1 inhibition in the concentration range tested | –
CS(=O)(=O)c1ccc(-c2cc(C(F)(F)F)nc(NCc3ccc([18F])cc3)n2)cc1 [[^18F]Pyricoxib, N-(4-[^18F]fluorobenzyl)-4-[4-(methylsulfonyl)phenyl]-6-(trifluoro-methyl)pyrimidin-2-amine] | – | > 100
